Values of other authors in patent publication US20030232064A1.
Only a part of the results on these compounds is given; other tests are left out.

Settings: stored under pressure in cylinders

FCOC(C(F)(F)F)C(F)(F)F
storage period without measurable degradation: 5-7 years
